{"source": "patent US20250312470A1", "about": "“A PHARMACEUTICAL COMPOSITION OF ANTI-HER2 ANTIBODY-IMMUNE AGONIST CONJUGATE AND APPLICATIONS THEREOF” (GENEQUANTUM HEALTHCARE (SUZHOU) CO., LTD., priority 2022, published 2025)", "key": {"[1]": {"system": "MC38 hHER2 murine colorectal cancer cells overexpressing human HER2", "test": "In vivo anti-tumor efficacy, MC38 model overexpressing hHER2", "set-up": "species or system C57BL/6 mice", "settings": "10 mg/kg intravenously"}, "[2]": {"system": "NCI-N87 human gastric cancer cells", "test": "In vivo anti-tumor efficacy, NCI N87 CDX model", "set-up": "species or system SCID Beige mice", "settings": "5 mg/kg intravenously", "method": "For in vivo anti-tumor efficacy study, 1×10^7 NCI-N87 human gastric cancer cells were inoculated subcutaneously in the right flank of SCID Beige mice. […] The tumor volume was measured twice weekly with a caliper."}}}
{"substance": "Ab0001: naked unmodified antibody Ab0001 (Trastuzumab) [reference compound]", "values": [{"measurement": "anti-tumor activity (tumor volume)", "setting": "[1]", "value": "no obvious anti-tumor activity"}, {"measurement": "anti-tumor activity (tumor volume)", "setting": "[2]", "value": "very limited anti-tumor activity"}]}
